From patent US4801596A, “Nitroxy amino propanols for treating heart and circulatory diseases” (Boehringer Mannheim GmbH, priority 1984, dated 1989)

System: rat livers
Assay: denitration rate in re-perfused rat livers (nitrate-like action)
Conditions: rat liver re-perfused 4 min, equimolar 5×10^-5 M/l; freed NO2 determined in the perfusate; high values = fast denitration

SMILES: O=[N+]([O-])O[C@H]1CO[C@H]2[C@@H]1OC[C@H]2O[N+](=O)[O-]
- Vrel (denitration rate in relation to isosorbide-5-mononitrate): 17.5
